Assay results from US9242993B2, “Morpholino substituted bicyclic pyrimidine urea or carbamate derivatives as mTOR inhibitors” (CELLZOME LIMITED, priority 2011, dated 2016).

Chains of the proteins cited; added tags and fusions are not shown. Lines headed by an entry give the natural chain unless they say otherwise; changes in a name come on top.
UniProt P42336, whole entry: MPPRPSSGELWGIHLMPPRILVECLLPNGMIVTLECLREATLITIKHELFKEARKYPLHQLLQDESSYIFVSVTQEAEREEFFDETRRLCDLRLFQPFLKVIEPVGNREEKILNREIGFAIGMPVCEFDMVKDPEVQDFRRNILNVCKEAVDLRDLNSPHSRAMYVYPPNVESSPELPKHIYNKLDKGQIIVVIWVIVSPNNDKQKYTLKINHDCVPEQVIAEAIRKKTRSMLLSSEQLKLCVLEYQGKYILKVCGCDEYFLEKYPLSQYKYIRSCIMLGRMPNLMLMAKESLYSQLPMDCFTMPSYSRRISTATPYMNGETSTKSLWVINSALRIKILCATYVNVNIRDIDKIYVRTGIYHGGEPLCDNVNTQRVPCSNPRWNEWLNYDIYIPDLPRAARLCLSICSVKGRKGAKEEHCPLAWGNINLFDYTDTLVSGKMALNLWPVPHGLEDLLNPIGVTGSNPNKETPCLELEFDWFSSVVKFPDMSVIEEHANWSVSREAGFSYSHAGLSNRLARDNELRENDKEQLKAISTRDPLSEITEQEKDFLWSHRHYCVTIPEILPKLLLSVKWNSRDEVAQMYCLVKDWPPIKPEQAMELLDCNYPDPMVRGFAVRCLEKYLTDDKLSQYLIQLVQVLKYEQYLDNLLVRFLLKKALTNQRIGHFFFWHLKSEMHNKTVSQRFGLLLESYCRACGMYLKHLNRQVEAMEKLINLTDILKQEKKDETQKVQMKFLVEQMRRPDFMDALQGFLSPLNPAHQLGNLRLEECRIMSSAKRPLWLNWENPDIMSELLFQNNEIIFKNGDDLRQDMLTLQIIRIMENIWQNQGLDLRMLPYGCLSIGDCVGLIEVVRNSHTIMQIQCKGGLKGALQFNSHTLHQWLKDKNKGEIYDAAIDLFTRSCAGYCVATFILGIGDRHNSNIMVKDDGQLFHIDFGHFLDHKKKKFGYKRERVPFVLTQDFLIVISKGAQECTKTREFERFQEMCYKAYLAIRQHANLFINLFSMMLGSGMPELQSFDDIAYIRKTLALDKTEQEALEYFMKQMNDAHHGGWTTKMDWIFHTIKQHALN
UniProt P42338: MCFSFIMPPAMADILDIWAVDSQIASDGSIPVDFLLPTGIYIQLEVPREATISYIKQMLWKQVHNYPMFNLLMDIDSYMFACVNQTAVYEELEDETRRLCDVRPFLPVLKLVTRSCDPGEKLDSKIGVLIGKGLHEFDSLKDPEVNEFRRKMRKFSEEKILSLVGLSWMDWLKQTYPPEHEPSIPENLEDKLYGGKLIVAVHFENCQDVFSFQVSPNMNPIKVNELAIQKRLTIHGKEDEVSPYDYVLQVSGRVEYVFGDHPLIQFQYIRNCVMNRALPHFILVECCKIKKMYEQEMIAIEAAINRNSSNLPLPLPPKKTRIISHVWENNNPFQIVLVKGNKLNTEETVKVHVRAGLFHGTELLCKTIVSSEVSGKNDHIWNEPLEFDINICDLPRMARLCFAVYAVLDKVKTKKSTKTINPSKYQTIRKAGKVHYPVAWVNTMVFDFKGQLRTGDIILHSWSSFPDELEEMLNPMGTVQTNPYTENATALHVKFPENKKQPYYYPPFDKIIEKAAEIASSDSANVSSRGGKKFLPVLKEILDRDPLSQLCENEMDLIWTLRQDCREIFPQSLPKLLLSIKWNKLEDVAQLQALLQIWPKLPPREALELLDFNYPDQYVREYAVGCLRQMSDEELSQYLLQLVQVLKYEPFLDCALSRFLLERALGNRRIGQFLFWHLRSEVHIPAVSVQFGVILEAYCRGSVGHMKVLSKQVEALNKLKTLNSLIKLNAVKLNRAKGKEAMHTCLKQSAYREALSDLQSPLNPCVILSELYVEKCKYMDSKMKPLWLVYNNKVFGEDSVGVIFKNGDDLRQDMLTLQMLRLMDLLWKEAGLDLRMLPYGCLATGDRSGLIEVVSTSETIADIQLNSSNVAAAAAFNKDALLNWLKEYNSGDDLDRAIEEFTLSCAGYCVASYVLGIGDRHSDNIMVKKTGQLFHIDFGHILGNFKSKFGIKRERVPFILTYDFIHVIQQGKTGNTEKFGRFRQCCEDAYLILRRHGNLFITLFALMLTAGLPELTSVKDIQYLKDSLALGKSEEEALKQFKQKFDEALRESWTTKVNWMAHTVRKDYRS
UniProt P48736: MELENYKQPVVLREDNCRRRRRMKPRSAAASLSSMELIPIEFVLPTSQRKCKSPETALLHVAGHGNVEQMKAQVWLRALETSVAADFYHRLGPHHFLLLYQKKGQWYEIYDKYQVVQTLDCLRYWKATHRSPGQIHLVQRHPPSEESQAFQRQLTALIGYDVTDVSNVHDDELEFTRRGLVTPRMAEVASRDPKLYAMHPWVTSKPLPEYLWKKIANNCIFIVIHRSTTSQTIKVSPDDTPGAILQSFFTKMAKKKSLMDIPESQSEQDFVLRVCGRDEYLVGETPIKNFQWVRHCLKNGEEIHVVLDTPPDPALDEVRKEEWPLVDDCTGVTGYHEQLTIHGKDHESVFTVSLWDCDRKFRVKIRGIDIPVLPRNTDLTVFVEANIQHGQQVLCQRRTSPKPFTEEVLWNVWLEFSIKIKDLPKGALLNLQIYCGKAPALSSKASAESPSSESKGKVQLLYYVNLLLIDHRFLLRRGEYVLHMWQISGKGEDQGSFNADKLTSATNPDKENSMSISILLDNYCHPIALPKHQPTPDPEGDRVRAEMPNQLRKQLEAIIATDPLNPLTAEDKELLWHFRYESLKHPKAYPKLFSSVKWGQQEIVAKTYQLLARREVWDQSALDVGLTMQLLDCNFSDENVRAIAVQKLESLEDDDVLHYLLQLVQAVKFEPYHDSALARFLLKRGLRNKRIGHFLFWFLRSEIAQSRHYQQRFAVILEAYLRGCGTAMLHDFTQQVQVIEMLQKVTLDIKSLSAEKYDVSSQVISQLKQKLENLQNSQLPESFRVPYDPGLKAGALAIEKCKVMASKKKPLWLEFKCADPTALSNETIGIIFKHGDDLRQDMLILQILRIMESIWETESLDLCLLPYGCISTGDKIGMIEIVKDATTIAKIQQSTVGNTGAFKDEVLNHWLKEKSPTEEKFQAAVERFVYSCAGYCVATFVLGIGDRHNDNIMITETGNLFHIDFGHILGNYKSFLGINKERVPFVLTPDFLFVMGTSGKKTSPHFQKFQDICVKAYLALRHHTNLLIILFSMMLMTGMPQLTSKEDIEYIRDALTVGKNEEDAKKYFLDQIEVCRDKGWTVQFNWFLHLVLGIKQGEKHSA
UniProt O00329: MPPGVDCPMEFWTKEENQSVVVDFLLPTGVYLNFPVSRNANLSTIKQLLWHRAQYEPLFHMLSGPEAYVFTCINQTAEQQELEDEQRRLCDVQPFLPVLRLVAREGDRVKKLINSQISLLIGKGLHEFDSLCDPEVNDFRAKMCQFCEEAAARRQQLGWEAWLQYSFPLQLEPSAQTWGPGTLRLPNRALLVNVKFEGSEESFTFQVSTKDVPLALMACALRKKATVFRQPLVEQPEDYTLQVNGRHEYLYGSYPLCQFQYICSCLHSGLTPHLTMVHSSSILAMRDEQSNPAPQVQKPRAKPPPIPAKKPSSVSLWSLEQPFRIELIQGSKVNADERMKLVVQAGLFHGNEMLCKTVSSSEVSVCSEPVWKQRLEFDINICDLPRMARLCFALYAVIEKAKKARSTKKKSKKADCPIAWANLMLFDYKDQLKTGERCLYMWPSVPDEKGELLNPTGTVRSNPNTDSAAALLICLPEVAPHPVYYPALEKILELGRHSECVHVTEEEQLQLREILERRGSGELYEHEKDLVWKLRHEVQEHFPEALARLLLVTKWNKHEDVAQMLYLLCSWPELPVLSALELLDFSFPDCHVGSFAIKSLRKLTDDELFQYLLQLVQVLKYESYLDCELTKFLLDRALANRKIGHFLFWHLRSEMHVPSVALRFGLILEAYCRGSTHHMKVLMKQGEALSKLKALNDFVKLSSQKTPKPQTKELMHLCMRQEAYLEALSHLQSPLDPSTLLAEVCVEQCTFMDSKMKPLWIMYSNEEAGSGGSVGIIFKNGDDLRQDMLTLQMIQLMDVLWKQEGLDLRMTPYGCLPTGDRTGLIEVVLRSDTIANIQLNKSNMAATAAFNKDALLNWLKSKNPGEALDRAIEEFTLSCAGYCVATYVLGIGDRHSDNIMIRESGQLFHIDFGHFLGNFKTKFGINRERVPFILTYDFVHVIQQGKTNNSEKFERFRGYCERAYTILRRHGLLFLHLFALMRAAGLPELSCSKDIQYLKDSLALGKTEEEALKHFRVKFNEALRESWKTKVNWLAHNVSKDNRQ

How the values were obtained:
Type in all cases: binding
[1] = molecular target: PI3K alpha (PI3Ka) (Homo sapiens, UniProt P42336); assay: kinobeads assay, PI3K alpha; conditions: Jurkat cell lysate, read-out: PI3Ka inhibition value (IC50), activity level
[2] = molecular target: PI3K beta (PI3 Kb) (Homo sapiens, UniProt P42338); assay: kinobeads assay, PI3K beta; conditions: Jurkat cell lysate, read-out: PI3Kb inhibition value (IC50), activity level
[3] = molecular target: PI3K gamma (PI3 Kg) (Homo sapiens, UniProt P48736); assay: kinobeads assay, PI3K gamma; conditions: Jurkat cell lysate, read-out: PI3Kg inhibition value (IC50), activity level
[4] = molecular target: PI3K delta (PI3 Kd) (Homo sapiens, UniProt O00329); assay: kinobeads assay, PI3K delta; conditions: Jurkat cell lysate, read-out: PI3Kd inhibition value (IC50), activity level

| IC50 [1] | IC50 [2] | IC50 [3] | IC50 [4] | Structure (SMILES) |
| --- | --- | --- | --- | --- |
| > 10 µM | > 10 µM | > 10 µM | > 10 µM | CCNC(=O)Nc1ccc(-c2nc(N3CCOC[C@@H]3C)c3c(n2)C(C)(C)S(=O)(=O)C3)c(F)c1 [Example 69, (S)-1-(4-(7,7-dimethyl-4-(3-methylmorpholino)-6,6-dioxido-5,7-dihydrothieno[3,4-d]pyrimidin-2-yl)-3-fluorophenyl)-3-ethylurea] |
| 1 to 10 µM | > 10 µM | > 10 µM | > 10 µM | CCNC(=O)Nc1ccc(-c2nc3c(c(N4CCOC[C@@H]4C)n2)[C@H](C)S(=O)(=O)C3)cc1 [Example 40, 1-ethyl-3-(4-((S)-5-methyl-4-((S)-3-methylmorpholino)-6,6-dioxido-5,7-dihydrothieno[3,4-d]pyrimidin-2-yl)phenyl)urea] |
| 1 to 10 µM | 1 to 10 µM | > 10 µM | > 10 µM | C[C@@H]1COCCN1c1nc(-c2ccc(NC(=O)NC3CC3)cc2)nc2c1CS(=O)(=O)C2(C)C [Example 54, (R)-1-cyclopropyl-3-(4-(7,7-dimethyl-4-(3-methylmorpholino)-6,6-dioxido-5,7-dihydrothieno[3,4-d]pyrimidin-2-yl)phenyl)urea] |
| > 10 µM | > 10 µM | > 10 µM | > 10 µM | CC[C@H]1COCCN1c1nc(-c2ccc(NC(=O)NC3CC3)cc2)nc2c1CS(=O)(=O)C2(C)C [Example 51, (S)-1-cyclopropyl-3-(4-(4-(3-ethylmorpholino)-7,7-dimethyl-6,6-dioxido-5,7-dihydrothieno[3,4-d]pyrimidin-2-yl)phenyl)urea] |
